Test system: rats
Test: 14-day toxicity in rats by intravenous administration
Type: in vivo, Crj:CD (SD) SPF rats
Protocol: Peptide (II) having a purity of 98.3% which was obtained in Reference Example 1 was dissolved in a physiological saline to prepare three preparations having the peptide (II) concentrations of 0.025 mg/ml, 0.075 mg/ml and 0.25 mg/ml, respectively. As a control, the physiological saline was used.
100 Crj:CD (SD) SPF rats of 4 weeks old of both sexes (50 male rats and 50 female rats) were purchased from Charles River Japan, Inc., Japan. 40 Rats of each sex (males weighing 102.4 to 114.6 g and females weighing 92.9 to 104.2 g) which were healthy and in good conditions in respect of both the clinical signs and the body weight gain during about one-week observation period for the quarantine and the acclimation were selected and used for the following experiment.
The rats were divided at random into four groups each consisting of 10 male rats and 10 female rats. Three of the four groups are used for the treatment with peptide (II).
Each of the above-prepared three test drug solutions containing peptide (II) at concentrations of 0.025 mg/ml, 0.075 mg/ml and 0.25 mg/ml, respectively, was individually administered to the rats of the three groups at a dosage of 0.2 ml/100 g of body weight. That is, the peptide was administered to the rats of the three groups at dosages of 0.05 mg/kg, 0.15 mg/kg and 0.5 mg/kg of body weight, respectively. To the rats of the remaining group, physiological saline was administered as a control at a dosage of 0.2 ml/100 g of body weight. The administration of each of the test drug solutions and the physiological saline was conducted daily for 14 days through the tail vein of each rat (with the weekly alteration between the left side and right side tail veins) at an administration rate of 0.5 ml/sec (once a day at a time between 1:00 p.m. and 3:00 p.m.).
Each rat was observed 4 times a day to examine whether or not it was dead and/or any remarkable changes in clinical signs had occurred. The results were recorded.
The amounts of the food supplied and the food remaining were measured by means of a balance twice a week during the administration period, and the daily food consumption per animal was calculated.
The amount of water consumption was measured once a week during the administration period.
The individual body weight was measured on the first day of the administration and then twice a week during the administration period.
Each of the male and female rats of the control group and the highest dosage group (0.5 mg/kg of body weight) were subjected to examination of bilateral fundus oculi on the 11th administration day.
Samples of abdominal aorta blood were obtained from all of the rats on the day after the 14th administration day under ether anesthesia. One ml of each blood sample was transferred to an EDTA 2K tube (manufactured and sold by Toa Medical Electronics Co., Japan) and examined with respect to the following parameters using an automatic blood cell counter CC-108 (manufactured and sold by Toa Medical Electronics Co., Japan), automatic platelet counter PL-100 (manufactured and sold by Toa Medical Electronics Co., Japan) and automatic hemoglobinmeter HB-100 (manufactured and sold by Toa Medical Electronics Co., Japan): TE-400 (manufactured and sold by Erma Optical Works Ltd., Japan):
Samples of abdominal aorta blood were obtained from all of the rats on the day after the 14th administration day under ether anesthesia. An aliquot (one ml) of each blood sample was immediately transferred to a heparin-coated tube. Within ten minutes, the samples were centrifuged at 1000G at 4° C. for two minutes and the plasma was separated for analyses of lactate dehydrogenase, sodium, potassium and chloride. On the other hand, another aliquot (ten ml) of each blood sample was centrifuged at 1350G at 4° C. for 10 minutes after keeping it stand still for 15 to 90 minutes, to thereby obtain serum. Each serum was separated for analyses of the other parameters shown below. […]

[1] = i.v. daily for 14 days, 0.05, 0.15 and 0.5 mg/kg

## CC[C@H](C)[C@@H]1NC(=O)[C@H](CCCNC(=N)N)NC(=O)[C@H](CC(=O)O)NC(=O)[C@H]([C@@H](C)CC)NC(=O)[C@H](CCCNC(=N)N)NC(=O)CNC(=O)CNC(=O)[C@H](Cc2ccccc2)NC(=O)[C@@H](NC(=O)[C@H](CO)NC(=O)[C@H](CO)NC(=O)[C@H](CCCNC(=N)N)NC(=O)[C@H](CCCNC(=N)N)NC(=O)[C@H](CC(C)C)NC(=O)[C@@H](N)CO)CSSC[C@@H](C(=O)N[C@@H](CC(N)=O)C(=O)N[C@@H](CO)C(=O)N[C@@H](Cc2ccccc2)C(=O)N[C@@H](CCCNC(=N)N)C(=O)N[C@@H](Cc2ccc(O)cc2)C(=O)O)NC(=O)CNC(=O)[C@H](CC(C)C)NC(=O)CNC(=O)[C@H](CO)NC(=O)[C@H](CCC(N)=O)NC(=O)[C@H](C)NC(=O)CNC1=O [Peptide (II)]
[1]
  Blood biochemical examination: No remarkable change
  Change in body weight: No remarkable change
  Clinical signs: No remarkable change
  Clinical signs: death of animals: No dead animal
  Food consumption: No remarkable change
  Hematological examination: No remarkable change
  Histopathological examination: No remarkable change
  Measurement of organ weight: No remarkable change
  Patho-anatomical examination: No remarkable change
  Urinalysis (24-hour urine volume): No remarkable change
  Water consumption: No remarkable change
i.v. daily, highest dosage group 0.5 mg/kg, 11th administration day
  Ophthalmic examination: No remarkable change
